Screening data as filed in PubChem.
Compounds with a hit are over-represented: about 2.5% of the library has one in this group of screens.
miR-21 reporter: raises the signal of a miR-21 reporter; Potency, µM (doses to about 38.3 µM); HeLa miR-21 FLuc reporter, luciferase, 48 h; AID 2288; 340,000 tested, under 10 active; active = well fitted rising curve with a large enough effect; inconclusive = small, poorly fitted or top-dose-only effect; inactive = no such curve, though single readings can be large or run the other way;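 further: miR-21 action dims this reporter so a rising signal means less miR-21 action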
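Using DMEM plus 10% FBS, HeLa miR-21-FLuc cells are incubated with test compounds (final up to about 40uM) for 48 hours; firefly luciferase signal is then imaged following reagent-mediated lysis.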
ClpP mod: qHTS Assay for Activators of ClpP | ATP-dependent Clp protease proteolytic subunit (Bacillus subtilis (strain 168)), P80244 | purified B. subtilis ClpP, FRET peptide cleavage, 20 min | Potency, µM (series often up to 57.5 µM) | hit rate 1.9% among 340,000 | AID 651965, 2013; active = well fitted falling curve with a large enough effect; inconclusive = small, poorly fitted or top-dose-only effect; inactive = no such curve, though single readings can be large or run the other way; note: the source files actives as falling curves though it sought activators and does not explain the sign; nearly all actives have a fitted effect of over 65% in size
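Buffer: 100 mM Tris/HCl pH8, 100 mM KCl, 0.05% low protease BSA, 2.5% glycerol, 0.01% Tween-20. ClpP 10 microg/mL final; 20 min RT; delta FRET normalized to ADEP and DMSO controls.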
Apoferritin bind: candidate novel general anesthetic via apoferritin binding; P02791; apoferritin/1-aminoanthracene competitive binding, fluorescence; Potency, µM (series often up to 77.5 µM), hits mostly inhibitors; hit rate 0.074% among 350,000; AID 485281; note: nearly all actives have a fitted effect of over 20% in size
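Apoferritin-based anesthetic binding model; compound displacement of fluorescent 1-AMA measured as endpoint fluorescence after 10 minutes at room temperature, scaled to free-ligand and complex controls.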
rTrxR1 inhibitor: blocks rat thioredoxin reductase 1; Potency, µM (top dose mostly 114 µM), hits mostly inhibitors; AID 588453; O89049; hit rate 1% among 390,000; recombinant rTrxR1, NADPH fluorescence consumption, selenite substrate; note: nearly all actives have a fitted effect of over 65% in size
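Rat TrxR1 (90 nM in the dispensed reagent) was pre-reduced with 400 uM NADPH for 5 min at room temperature, then incubated with compound for 15 min. After 400 uM selenite was added, NADPH fluorescence (Ex 340/Em 450 nm) was followed for 8 min.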
TrxR1 substrate: substrates of rat thioredoxin reductase 1 | O89049 | purified TrxR1 substrate turnover, NADPH consumption readout | Potency, µM (highest dose often 114 µM) | hit rate 0.01% among 390,000 | AID 588456; note: nearly all actives have a fitted effect of over 50% in size
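Rat TrxR1, dispensed at 90 nM, was prereduced with 400 uM NADPH (final) for 5 min at ~22 deg C, then incubated with compound 15 min before 400 uM selenite. A first-read NADPH fluorescence drop versus no-compound background flagged substrates.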
Hits are given with their value; 0 = inactive; ? = inconclusive; - = no result given. Unless noted, calls come from the whole dose curve; as a rule, active = well fitted curve in the direction sought with a large enough effect; inconclusive = small, poorly fitted or top-dose-only effect, or another doubt; inactive = no such curve, though single readings can be large; an effect the other way counts as inactive or inconclusive.

Amino acid sequences for entries named in this document (tags omitted).
ATP-dependent Clp protease proteolytic subunit (Bacillus subtilis (strain 168)), P80244, UniProt P80244, whole entry, looked up: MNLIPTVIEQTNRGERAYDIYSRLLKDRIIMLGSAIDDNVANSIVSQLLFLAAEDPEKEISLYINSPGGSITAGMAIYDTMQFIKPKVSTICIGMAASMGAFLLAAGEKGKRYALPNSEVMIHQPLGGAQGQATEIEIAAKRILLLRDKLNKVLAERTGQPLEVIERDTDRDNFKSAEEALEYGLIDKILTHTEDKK

SMILES	miR-21 reporter	ClpP mod	Apoferritin bind	rTrxR1 inhibitor	TrxR1 substrate
COC(=O)c1ccccc1NC1CC(=O)N(c2c(C)cccc2C)C1=O (configuration not stated)	0	8.9µM	0	0	0
CCc1c(C)sc2c1CCN(Cc1ccccc1F)C2c1ccccc1 (configuration not stated)	?	0	0	0	0
O=C(c1ccc(Br)c(S(=O)(=O)N2CCCCC2)c1)N1CCCCC1	0	22µM	0	0	0
O=C(c1ccc(Cl)c(S(=O)(=O)N2CCCCC2)c1)N1CCCCC1	0	0	0	0	0
COc1cccc(CNC(=O)c2ccc(-n3c(C)cc4c3CCCC4)cc2)c1	0	0	0	?	0
COc1ccc(C(=O)N/N=C(\C)Cn2nc([N+](=O)[O-])cc2C)cc1	0	11µM	0	0	0
Cc1ccc(Oc2nc(-c3ccccc3)ncc2S(=O)(=O)c2ccc(C)cc2)cc1	0	22µM	0	0	0
CC1=Nc2cc(C(=O)NC3CCCCC3)ccc2Sc2ccc(Cl)cc21	0	0	0	0	0
COc1ccccc1NC(=O)CSC1=NC(=O)C(Cc2ccccc2)C(=O)N1 (configuration not stated)	0	-	0	0	0
COc1ccccc1NC(=O)CSC1=NC(=O)C(NC(C)=O)C(=O)N1 (configuration not stated)	0	28µM	0	0	0
COc1ccccc1NC(=O)CSc1nnc(N)s1	0	0	0	13µM	0
Cc1ccc(S(=O)(=O)c2cc(O)ccc2O)cc1C	0	0	0	?	0
CC(=O)Nc1ccc(S(=O)(=O)c2cc(O)ccc2O)cc1	0	-	0	18µM	0
CC(=O)CCS(=O)(=O)c1ccc(NC(C)=O)cc1	0	0	0	40µM	0
O=C(Cc1ccc(Cl)cc1)NCCc1c[nH]c2ccccc12	-	0	-	0	0
O=C(O)Cc1c[nH]c2ccccc12	-	0	-	0	0
O=C(CCl)N(c1ccccc1)c1c[nH]c2ccccc12	?	0	0	2.2µM	0
O=C(CCl)N(c1ccc(Cl)cc1)c1c[nH]c2ccccc12	?	0	?	0.45µM	0
O=C(O)CCn1c2c(c3ccccc31)CCCC2	0	25µM	0	0	0
CCOc1cccc2sc(N(Cc3cccnc3)C(=O)C3CCCCC3)nc12	0	0	0	0	0
Cc1cccc(CN2C3=NCCCN3c3ccccc32)c1	0	0	0	0	0
CCN1C2=NCCCN2c2cc(C)c(C)cc21	0	28µM	0	0	0
COc1ccc(OC)c(NC(=O)c2cc3c(=O)n4cccc(C)c4nc3n2C)c1	0	0	0	0	0
CC1CCN(c2nc(-c3cccnc3)nc3scc(-c4ccccc4)c23)CC1	0	?	0	0	0
CC1CCCN(c2nc(-c3cccnc3)nc3scc(-c4ccccc4)c23)C1 (configuration not stated)	0	14µM	0	0	0
SMILES	miR-21 reporter	ClpP mod	Apoferritin bind	rTrxR1 inhibitor	TrxR1 substrate
Cc1nnnn1/C(=C\c1ccccc1)C(=O)OCC(=O)Nc1ccc(Cl)cc1F	-	0	-	?	0
Cc1nnnn1/C(=C\c1ccccc1)C(=O)OCC(=O)Nc1cccc(S(=O)(=O)N(C)C)c1	-	0	-	13µM	0
COc1cc(/C=C/C(=O)c2ccccc2O)cc(OC)c1OC	0	0	?	50µM	0
COc1ccc(/C=C/C(=O)NCc2ccccn2)cc1OC	0	-	0	0	0
COc1cc(OC)c(C=CC(=O)c2ccccc2O)c(OC)c1	-	0	-	0	0
COc1cc(/C=C/C(=O)Nc2nnc(CC(C)C)s2)cc(OC)c1OC	0	35µM	0	0	0
COc1cc(/C=C/C(=O)NCc2ccccn2)cc(OC)c1OC	0	25µM	0	0	0
COc1ccc(/C=C/C(=O)NCc2ccccn2)cc1	0	25µM	0	0	0
O=C(NCc1ccc(F)cc1)C1CCCN(c2ncnc3onc(-c4ccc(F)cc4)c23)C1 (configuration not stated)	0	0	0	0	0
CCn1c(C)c(C2N3CC4(C)CN2CC(CC)(C3)C4=O)c2ccccc21 (configuration not stated)	0	0	0	0	0
Cc1ccc(CN(C)C(=O)c2ccccc2NC(=O)c2ccccc2)o1	-	0	-	28µM	0
CN(Cc1ccccc1)C(=O)c1ccccc1NC(=O)c1ccco1	0	0	0	0	0
CCCN1C(=O)C(Cc2nc3ccccc3c(=O)n2CC)c2cc(Br)ccc21 (configuration not stated)	?	0	?	0	0
Nc1nc(Sc2c([N+](=O)[O-])cc(C(F)(F)F)cc2[N+](=O)[O-])n[nH]1	?	0	0	16µM	0
O=C(CCNc1ccc(F)cc1)c1cc2ccccc2o1	0	-	0	?	0
O=C(CCNc1cccc(F)c1)c1cccc([N+](=O)[O-])c1	0	0	?	6.3µM	0
O=C(CCNc1ccc(Cc2ccncc2)cc1)c1cccc([N+](=O)[O-])c1	0	-	?	?	0
O=C(CCNc1cccc(F)c1)c1cc2ccccc2o1	0	0	?	7.9µM	0
COC(=O)C1C=CC(OC2OC(COC(C)=O)C(OC(C)=O)C(OC(C)=O)C2OC(C)=O)n2c(=O)n(-c3ccccc3)c(=O)n21 (configuration not stated)	-	0	-	11µM	0
COc1ccccc1-c1nnc(NC(C)=O)s1	0	28µM	0	0	0
CC(C)C(=O)Nc1nnc(NC(=S)Nc2ccccc2)s1	0	-	0	10µM	0
COc1ccccc1-c1nnc(NC(=O)C(C)C)s1	0	32µM	0	0	0
CCCCOC(=O)Nc1nnc(-c2ccccc2OC)s1	0	?	0	0	0
O=C(C[n+]1c(Cl)cc(Cl)c2ccccc21)c1ccccc1	-	0	-	71µM	0
Cc1cc[n+](CC(=O)c2ccccc2)c2ccccc12	0	0	0	0	0
SMILES	miR-21 reporter	ClpP mod	Apoferritin bind	rTrxR1 inhibitor	TrxR1 substrate
Cc1ccc(-c2cc3cccc[n+]3cc2-c2ccc(C)cc2)cc1	?	2.8µM	0	0	0
CC1CCCCN1c1cc2c(cc1F)c(=O)c(S(=O)(=O)c1ccccc1)cn2Cc1ccccc1 (configuration not stated)	0	16µM	0	0	0
O=c1c(S(=O)(=O)c2ccccc2)cn(Cc2cccc(F)c2)c2cc(N3CCOCC3)c(F)cc12	0	28µM	0	0	0
O=c1c(S(=O)(=O)c2ccccc2)cn(Cc2ccccc2)c2cc(N3CCOCC3)c(F)cc12	0	28µM	0	0	0
Cc1ccc(S(=O)(=O)c2cn(Cc3ccccc3)c3cc(N4CCCC4)c(F)cc3c2=O)cc1C	0	13µM	0	0	0
COc1cc(CN(CC2CCCO2)C(=O)c2ccc(F)cc2)cc(OC)c1OC (configuration not stated)	0	0	0	0	0
